The subject of this test is XBP-1-Luc HEK293T reporter cell line (IRE1α activity and XBP-1 splicing). The note with it: XBP-1-Luc cells with HRH1 OE, Tm/Tg 1 μM, 24 hours.

SMILES strings stand for the structures.

We go through 2 molecules from patent US20250295610A1, “NEUROPROTECTIVE AGENTS FOR USE IN THE TREATMENT OF OPTIC NEUROPATHIES” (The Board of Trustees of the Leland Stanford Junior …, priority 2021, published 2025).

Regarding `Clc1ccc2c(c1)C(N1CCNCC1)=Nc1ccccc1O2` [amoxapine], the “effect of HRH1 overexpression on the inhibitory effects on XBP-1 splicing” value was “reversed”.

Take `CNCCCC12CCC(c3ccccc31)c1ccccc12` [maprotiline]: the “effect of HRH1 overexpression on the inhibitory effects on XBP-1 splicing” value is “reversed”.
